# This is a selection; strong and weak results do not stand in their true shares. Active and inactive are the calls of the source.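 Rule for the calls: active = mean replicate activation of at least 60% and every replicate at or above 60%; inconclusive = mean or all-replicate condition met, but not both; inactive = mean below 60% and not all replicates reaching 60%.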
# Assay: activators of SR-BI mediated DiI-HDL uptake, primary screen, ldlA[mSR-BI] CHO cells, DiI fluorescence (AID 504775);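 note: 0% = median plate neutral-control signal and 100% = twice that signal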
# Conditions: 3 h, at 12.5 µM, active compounds read high, 100 = double the neutral-control signal
# How it was run: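 Material: SR-BI-overexpressing, LDLR-lacking CHO cells; schedule: compound exposure 3 h, 37 °C; reagent: DiI-labelled HDL at 10 µg/mL final; technique: bottom-read fluorescence, 550/595 nm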
row,Compound,activation
1,CCC(=O)N(c1ccccc1)C1(COC)CCN(CCc2cccs2)CC1,inactive: 9.44%
2,CCC(=O)N(c1ccccc1)C1(COC)CCN(CCn2nnn(CC)c2=O)CC1,inactive: 15.2%

# Reference: PubChem BioAssay AID504775 (Broad Institute, 2011)
